As usually defined, the minimal effective dose is the smallest amount tested that counted as effective.

The experiment relates to Straub's tail reaction (hyper-muscle tone in the tail). As to the kind of experiment: Morphine induced Straub's tail phenomenon in mice. In kind it is in vivo. The following applies: Mus musculus.

Structures can show the parent of a compound that is named as a salt. Where two headings read alike, the source gives them in different places.

Take `COc1ccc2c(c1)C(N1CCN(CCc3ccc(F)cc3)CC1)CC2` (centres unmarked) [Example 250, 1-{4-[2-(4-fluorophenyl)ethyl]piperazin-1-yl}-6-methoxyindan Hydrochloride]: the minimal effective dose reads like this: (ip, read-out: minimal effective dose i.p.) 10 mg/kg; (po, read-out: minimal effective dose p.o.) 30 mg/kg.

Source of the values: patent US6579881B2 (Eisai Co., Ltd., priority 1997, dated 2003).
